# From PubChem BioAssay AID1894 (NMMLSC, 2009)
# Protein sequences, listed by entry. Tags and fused reporters are not part of them. Lines headed by an entry give the natural chain unless they say otherwise; changes in a name come on top.
# UniProt Q99759: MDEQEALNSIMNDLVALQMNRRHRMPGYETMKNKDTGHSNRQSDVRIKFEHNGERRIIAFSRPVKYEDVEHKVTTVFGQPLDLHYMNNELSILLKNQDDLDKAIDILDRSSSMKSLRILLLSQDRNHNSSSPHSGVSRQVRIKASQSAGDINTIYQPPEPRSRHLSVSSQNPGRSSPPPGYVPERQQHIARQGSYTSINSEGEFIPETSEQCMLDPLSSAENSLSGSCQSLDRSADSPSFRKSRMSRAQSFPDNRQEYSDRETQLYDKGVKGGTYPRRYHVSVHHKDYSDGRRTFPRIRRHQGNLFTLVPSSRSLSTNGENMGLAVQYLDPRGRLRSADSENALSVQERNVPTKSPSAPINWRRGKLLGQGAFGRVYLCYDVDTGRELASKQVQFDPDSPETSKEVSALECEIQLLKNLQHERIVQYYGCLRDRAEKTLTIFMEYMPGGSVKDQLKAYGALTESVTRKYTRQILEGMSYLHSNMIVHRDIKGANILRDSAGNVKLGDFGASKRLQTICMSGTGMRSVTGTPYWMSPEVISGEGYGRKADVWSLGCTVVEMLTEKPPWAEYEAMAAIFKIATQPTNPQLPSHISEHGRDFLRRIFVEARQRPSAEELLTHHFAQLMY
# This is a selection; strong and weak results do not stand in their true shares. The source made the active and inactive calls.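 The calls were made as follows: active = binding response below 72% of control, or above a set upper limit, though filed actives all read lower; inactive = the rest.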
# Molecular target: Mitogen-activated protein kinase kinase kinase 3 (Homo sapiens) (UniProt Q99759)
# Test: blockers of MEK5-MEKK3 PB1 association – biochemical, bead multiplex flow cytometry, single concentration, wildtype, confirmation (AID 1894);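 also: 100% = DMSO only wells and 0% = binding blocked by excess unlabeled MEK5; lower values mean stronger disruption of MEK5 binding to MEKK3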
# Conditions: Alexa488-MEK5 binding to MEKK3, at 10 µM, hits give low values
row,SMILES,binding response (% of control)
1,CN(CCCl)Cc1cc(Cl)c(NC2=NCCN2)c(Cl)c1,inactive: 99%
2,CCC1=CC2Cc3nc4ccc(Cl)cc4c(N)c3C(C1)C2 (configuration not stated),inactive: 103%
